For data set [1], the system named is vascular endothelial growth factor (VEGF) receptors. The note with it: cited from earlier work.
The test system of data set [2] is fibroblast growth factor (FGF) receptors. The note with it: cited from earlier work.
In data set [3] the test system is fibroblasts. The note with it: multiple resident fibroblast populations; cited from earlier work.
Data set [4] deals with human corneal fibroblast (hCF) cells. Kind of data set: MTT cell viability, human corneal fibroblasts. As for the experimental part: The inventors evaluated the antifibrotic theramem safety in vitro with human corneal epithelial (hCEC) and human corneal fibroblast (hCF) cells. […] However, treatment with three and four theramems corresponding to a higher drug concentration (9 and 12 μg of NIN) caused a decrease in the number of live cells. The cytotoxic effect was more pronounced in hCF cell cultures.
Evaluation of Nin-theramem toxicity in vitro: Potential cell toxicity of the NIN-theramem was studied using human corneal epithelial cells (hCEC) and human corneal fibroblast (hCF) cells. NIN-theramems were cut into 2 mm diameter and placed in each well of a flat bottom well plate to test the cell toxicity effect of the 3D-bioprinted Theramems. The cell lines were incubated with 1, 2, 3 and 4 NIN-theramems with 3 μg, 6 μg, 9 μg and 12 μg drug respectively. The hCEC and hCF cells were added to the wells with or without the theramems at a seeding density of 10×10^3 cells per well. The cells were kept in an incubation chamber at 37 °C and 5% CO2 throughout the study. After 48 hours the cell viability was measured against cells without treatment by MTT assay using a plate reader (CLARIOstar BMG LABTECH GmbH, Germany).

The subject of data set [5] is human corneal keratocytes. Kind of data set: TGF-β induced corneal keratocyte to myofibroblast differentiation in vitro (α-SMA staining). The note with it: TGF-β (10 ng/ml) then NIN (10 μg), 72 h; vs TGF-β only. The source says: FIGS. 7A-7H. NIN regulated corneal keratocyte to myofibroblast differentiation. […] Mouse corneal sections stained with α-SMA for fibroblast and myofibroblast density: Healthy (FIG. 7D); PBS treated (control) (FIG. 7E); and NIN-theramem treated corneas (FIG. 7F). […] Scale bar: 100 μm. Mean differences of the groups were considered significant at **P<0.01.
To determine the effect of NIN on regulating the TGF-β induced corneal keratocyte (CKC) to myofibroblast (MFB) differentiation, the inventors treated CKC with TGF-β (10 ng/ml) followed by NIN (10 μg) for 72 hours. […] The inventors further characterized the CKC to MFB differentiation in vivo in a mouse OB model. To evaluate the antifibrotic efficacy of the NIN-theramem, the OB mice were treated with NIN-theramems on alternate days for 14 days. […] In this study, we quantified 3 subsets of fibroblasts: α-SMA positive myofibroblasts associated with corneal haze and scar formation, S100 positive fibroblasts that promote angiogenesis, and SCA-1 positive fibroblasts associated with progenitor mesenchymal stromal cells. […]
Evaluation of NIN-Theramem ability to regulate corneal scarring in vitro: The ability of NIN-theramem to regulate corneal scarring was evaluated by determining the effect of NIN on modulating TGF-β induced transition of corneal keratocyte (CKC) to myofibroblasts. […]

Data set [6] has as its system platelet-derived growth factor (PDGF) receptors. The conditions noted are these: cited from earlier work.
The test system of data set [7] is corneal wounds. The note with it: eye drops; cited from earlier work.

The values that follow come from patent publication US20260382533A1, “OCULAR DRUG DELIVERY” (published 2026).

Molecules are shown by their SMILES.

As to `COC(=O)c1ccc2c(c1)NC(=O)/C2=C(\Nc1ccc(N(C)C(=O)CN2CCN(C)CC2)cc1)c1ccccc1`, in data set [1], the “Activity on VEGF receptors” value was “known modulatory activity”. Also, in data set [2], the “Activity on FGF receptors” value is “known modulatory activity”. In addition, the “Fibroblast proliferation and myofibroblast trans-differentiation” value in data set [3] was “inhibits fibroblast proliferation and the myofibroblast (MFB) trans-differentiation”. For the same compound, the “Decrease in live hCF cells” value in data set [4] (12 μg NIN, 48 h) is listed as “approximately 50%”. In data set [4] (hCF, "29 μg" as printed), the “Cytotoxic effect at higher NIN concentration” value is given as “cytotoxic effect”. In addition, in data set [4] (up to 6 μg NIN), the “Effect on live hCF cells” value is reported as “negligible effect on live hCF cells”. For the same compound, the “Safely tolerated NIN amount in hCF cells” value in data set [4] (up to, 48 h) is “Up to 6 μg”. The “α-SMA staining of TGF-β treated keratocytes” value in data set [5] is “did not exhibit α-SMA antibody staining”. Also, the “Activity on PDGF receptors” value in data set [6] is “known modulatory activity”.

On to `CC(=O)[C@@]1(O)CC[C@H]2[C@@H]3C[C@H](C)C4=CC(=O)C=C[C@]4(C)[C@@]3(F)[C@@H](O)C[C@@]21C`, for which, in data set [7], the “Effect on wound healing process” value is listed as “delay the wound healing process” and the “Prevention of corneal scarring” value is “ineffective in preventing corneal scarring”.

For the compound `C[C@@H]1C[C@H]2[C@@H]3CCC4=CC(=O)C=C[C@]4(C)[C@@]3(F)[C@@H](O)C[C@]2(C)[C@@]1(O)C(=O)CO`, in data set [7], the “Effect on wound healing process” value is “delay the wound healing process” and the “Prevention of corneal scarring” value is listed as “ineffective in preventing corneal scarring”.

As for `C[C@]12C=CC(=O)C=C1CC[C@@H]1[C@@H]2[C@@H](O)C[C@@]2(C)[C@H]1CC[C@]2(O)C(=O)CO`, in data set [7], the “Effect on wound healing process” value is reported as “delay the wound healing process” and the “Prevention of corneal scarring” value is reported as “ineffective in preventing corneal scarring”.
